# Measurements: patent publication EP4834881A1, “QUINOLONE COMPOUNDS AND USE THEREOF” (dated 2026)
# Chains of the proteins cited; added tags and fusions are not shown.
# UniProt Q96LB1, whole entry: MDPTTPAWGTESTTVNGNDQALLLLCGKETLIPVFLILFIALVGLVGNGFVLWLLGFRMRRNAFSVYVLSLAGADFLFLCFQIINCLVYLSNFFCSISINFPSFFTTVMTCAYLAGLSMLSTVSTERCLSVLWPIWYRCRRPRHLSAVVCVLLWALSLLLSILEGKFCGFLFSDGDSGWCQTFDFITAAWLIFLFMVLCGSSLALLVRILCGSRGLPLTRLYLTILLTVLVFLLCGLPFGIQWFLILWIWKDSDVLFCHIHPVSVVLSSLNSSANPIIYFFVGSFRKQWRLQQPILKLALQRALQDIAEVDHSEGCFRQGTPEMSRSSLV
# Tests used:
# [1] = molecular target: human MRGPRX2 (Homo sapiens, UniProt Q96LB1); test: In vitro target binding assay: BRET between MRGPRX2-Nluc and Venus-β-arrestin1 in transfected HEK-293T cells, antagonist mode against agonist R-ZINC-3573 (EC80); conditions: antagonism of agonist R-ZINC-3573 at EC80, net BRET
# Description: Bioluminescence Resonance Energy Transfer (BRET) is an important biophysical technique for monitoring molecular interactions, and has been widely used to study protein-protein interactions in living cells. This technique requires the relevant proteins to be linked to an energy donor (such as luciferase) and an acceptor (such as a fluorescent protein). When a relevant drug molecule interacts with the protein, the protein structure alters, causing a change in the distance between the energy donor and the energy acceptor. The luminescence energy induced by the chemical reaction is transferred to the corresponding acceptor, resulting in increased acceptor emission, and generating a BRET signal. In this work, a DNA-synthesized target human MRGPRX2 and a donor luciferase Nluc (NanoLuc®Promega) (Supplier: Beijing Tsingke, Lot No.: SZ0171228-1), as well as an acceptor fluorescent protein Venus and the relevant test protein, namely human β-arrestin1 (ARRB1) (Supplier: Guangzhou Dahong Biotechnology, Lot No. HY22694-4396), were utilized, and were inserted into the eukaryotic expression vector plasmid pcDNA3.1(+) (Supplier: Qiyun Bio, Lot No.: QY2310) as fusion genes via a Linker sequence (GGSG). The cell line selected for the experiment was human embryonic kidney cells HEK-293T. The human embryonic kidney cell line HEK-293T was routinely cultured in 10 cm cell culture dishes using complete culture medium consisting of high-glucose DMEM medium supplemented with 10% (V/V) fetal bovine serum. Cells were seeded at 2×10^6 cells/10 cm dish on the first day of culture, and passaged every 72 h with the same number of cells. One day prior to transfection, cells were resuspended, counted, and seeded at a density of 2×10^6 cells/6 cm dish or 4×10^6 cells/10 cm dish. Transfection was carried out 16-24 h after seeding. Plasmids constructed with the fusion protein gene were transfected into the expression cell line, and the transfected cells were cultured under appropriate conditions for a period of time to allow sufficient expression of the fusion proteins. Transfection was performed by encapsulating plasmid DNA with PEI reagent, and the encapsulation process should to be carried out in Opti-MEM medium. The ratio of plasmid, PEI (Supplier: Yeasen Biotechnology, Lot No.: WP5430010), and Opti-MEM (Supplier: Gibco, Lot No.: 2883564) was 1:4:14 (W: W: V). The encapsulated plasmid was added to an appropriate amount of complete culture medium, amd gently mixed, which was then used to replace the existing culture medium of the previously plated cells. Cells were harvested 24 h after transfection. Subsequently, cells were resuspended using HBSS (Source: Biosharp, Lot No.: 24179687) and counted with a cell counter. The cells were diluted to a density of (3~5) ×10^5 cells/mL, and then seeded into a flat-bottom white 96-well microplate at 100 µ L/well, resulting in (3~5) ×10^4 cells per well. In each well, 10 µ L of antagonist compounds diluted with HBSS a different concentrations were added firstly, then the agonist compound at a specific concentration (EC80) was added. After reacting for 2 min, the substrate Furimazine (Supplier: TargetMol, Lot No.: 362434) at a final concentration of 10 µM was added. After reacting for another 2 min, the 96-well plate was placed in a PHERAstar FSX microplate reader (Supplier: BMG Labtech) to simultaneously measure the readings at wavelengths of 440 nm and 530 nm. Based on the fluorescence readings at 440 nm and 530 nm, the Ratio and net BRET were calculated. Ratio = Em530 nm / Em440 nm, and net BRET = Ratio co-transfection - Ratio single-transfection. The calculated net BRET values were inputted into GraphPad Prism 9, and curve fitting via nonlinear regression (four-parameter equation) and IC50 calculation were performed.
# [2] = test system: BALB/c mice; test: Urticaria model: anti-dinitrophenyl antibody sensitization and dinitrofluorobenzene challenge; number of wheals, serum IgE and histamine (ELISA); conditions: once daily, 6 days, mean ± SEM
# Experimental: Experimental animals: BALB/c mice, from Hangzhou Ziyuan Laboratory Animal Technology Co., Ltd
# After random grouping, the back of the mice was shaved in advance, with a shaving area of about 2 cm × 2 cm. Except for the normal control group, mice in the remaining groups were sensitized via tail vein injection of an anti-dinitrophenyl monoclonal antibody (Supplier: Sigma-Aldrich, Lot No.: 0000241402) (0.2 ng/mL) at a dose of 0.5 mL per mouse. After 24 h, the mice in each sensitization modeling group were challenged by topically applying 50 µL of 0.15% dinitrofluorobenzene (Supplier: Shanghai Macklin, Lot No.: C14969320) to the dorsal side of both ears. The normal control group was injected and topically applied with normal saline under the same conditions.
# The administration regimen for the mouse urticaria model was as follows (the normal control group and the model control group were administered with vehicle alone under the same conditions) (once daily):
# Mouse IgE ELISA detection kit: purchased from Shanghai Enzyme-linked Biotechnology Co., Ltd., Lot No.: ml1037602.
# Mouse histamine ELISA detection kit: purchased from Shanghai Enzyme-linked Biotechnology Co., Ltd., Lot No.: ml1001877.
# Microplate reader, manufacturer BioTek, model: Epoch.
# [3] = test system: C57BL/6 mice; test: Inflammatory bowel disease model: 3% DSS drinking water, DAI score; conditions: mean ± SEM
# Experimental: Experimental animals: C57BL/6 mice, from Guangdong Vital River Laboratory Animal Technology Co., Ltd.
# C57BL/6 mice were used. 3% DSS (Dextran Sulfate Sodium) (Supplier: MPBIO, Lot No.: YD11024) in water was prepared as drinking water for the mice.
# During the experiment, the animals were weighed at a fixed time daily, and their status (including feces, mortality) was observed. The efficacy was evaluated by the DAI score. The details of the DAI scoring criteria are as follows: 0 point for normal stool, 1 point for soft but formed stool, 2 points for soft stool, 3 points for soft and wet stool, 4 points for loose stool; 0-1 point for no occult blood, 2 points for occult blood positive, 3 points for visible blood in stool, 4 points for severe fecal blood; 0 point for no weight loss or weight gain, 1 point for weight loss of 1%-5%, 2 points for weight loss of 6%-10%, 3 points for weight loss of 11%-15%, 4 points for weight loss > 15%. The sum of the scores for 3 items is the total DAI score, and the weighing and scoring were carried out every other day. […] The DAI scores are shown in Table 5, and the data are presented as mean + standard error of the mean (SEM): Table 5
# [4] = test system: BALB/c mice; test: Psoriasis model: imiquimod cream on mouse back, PASI score; conditions: 4mg/g Topical application, once daily, mean ± SEM
# Experimental: (§1) Experimental animals: BALB/c mice, from Guangdong Vital River Laboratory Animal Technology Co., Ltd.
# The clinical severity of psoriasis was assessed using the Psoriasis Area and Severity Index (PASI) score. The PASI scoring criteria for mice are as follows:
# The hair on the back of the mice was shaved, and the application area was marked with a marker pen. Imiquimod cream (Supplier: Sichuan Mingxin Pharmaceutical, Lot No.: 24054002) was applied to the back of the mice for several consecutive days to establish a mouse model of psoriasis. Before daily application, the residual cream was removed using pure water.
# Administration was initiated on the day of grouping, which was designated as D1, and was performed once daily for 8 consecutive days. The normal control group and the model control group were administered with vehicle alone under the same conditions. Mice were scored according to the PASI (Psoriasis area and severity index). The administration regimen for the mouse psoriasis model was as follows: […]
# [5] = test system: BALB/c mice; test: Atopic dermatitis model: MC903 (calcipotriol) on right ear, ear thickness; conditions: 50 mg/kg BID p.o., mean ± SEM
# Experimental: as §1
# MC903 (calcipotriol) (Supplier: TargetMol, Lot No.: 235760) was applied to the right ear of mice, once a day, for 14 consecutive days.
# The animals were randomly divided into 6 groups before induction on D1. The model control group was administered with vehicle alone under the same conditions. Administration was carried out according to the following groups:
# During the experiment period, the thickness of the right ear of the mice was measured. […] The data are presented as mean ± standard error of the mean (SEM).
# [6] = test system: BALB/c mice; test: Asthma model: OVA sensitization and aerosol challenge, bronchoalveolar lavage fluid (BALF) cell differential count; conditions: 5mg/kg PO, 7 days, mean ± SEM
# Experimental: as §1
# (§2) Modeling was initiaed on the day of grouping, which was designated as M1. Except for the normal group, mice in all modeling groups were intraperitoneally injected with a sensitization solution of (500 µg OVA (Ovalbumin) (Supplier: Shanghai Macklin, Lot No.: C16255388) mixed with 5 mg aluminum hydroxide/mL) per mouse, while the normal control group was given an equal volume of sterile PBS solution. The injection cycle was M1, M7, and M14. Starting from M21, challenge was carried out by aerosolization once daily for 7 consecutive days. The challenge solution was a 20 mg/mL OVA (Ovalbumin) solution, and each aerosolization challenge lasted for 30 min. The normal control group was not subjected to aerosolization.
# (§3) Administration was initiated on day M21, which was designated as D1, and was performed once daily for 7 consecutive days. The normal control group and the model control group were administered with vehicle alone under the same conditions. The administration regimen for the mouse asthma model was as follows:
# The lungs were gently lavaged twice with normal saline to collect BALF. The recovered BALF was stored at 4 °C, and the cell differential count was detected using an automated hematology analyzer (Manufacturer: SYSMEX, Model: XN-1000). During the experiment, the asthma model mice developed typical symptoms, including shortness of breath, and ear and nose scratching, etc. […] The results of the bronchoalveolar lavage fluid cell differential count in each group are shown in Table 8, and the data are presented as mean ± standard error of the mean (SEM).
# [7] = test system: BALB/c mice; test: Asthma model: IgE assay (ELISA) in peripheral blood, alveolar lavage fluid and lung tissue; conditions: 5mg/kg PO, 7 days, mean ± SEM; for Peripheral Blood IgE Concentration: serum
# Experimental: as §1, §2, §3
# Prior to necropsy, blood was collected from the eyeball. The collected mouse blood was then centrifuged at 1800 r/min at 4 °C for 15 min, and the supernatant serum was aliquoted and stored at -80 °C for testing. At the same time, alveolar lavage fluid and lung tissues were collected. The IgE levels in the above three samples was detected using an ELISA method (Supplier: Shanghai Enzyme-linked Biotechnology Co., Ltd., Lot No.: ml1037602). […] The results of the IgE levels in peripheral blood, lavage fluid, and lung tissue of each group are shown in Table 9, and the data are presented as mean ± standard error of the mean (SEM).
SMILES,IC50 [1],Histamine Level ([2]; 4mg/kg Topical application),IgE Level ([2]; 4mg/kg Topical application),Histamine Level ([2]; 25mg/kg Oral),IgE Level ([2]; 25mg/kg Oral),"DAI score ([3]; D1, 20mg/kg QD p.o.)","DAI score ([3]; D2, 20mg/kg QD p.o.)","DAI score ([3]; D3, 20mg/kg QD p.o.)","DAI score ([3]; D4, 20mg/kg QD p.o.)",Eosinophil Count [6],Leukocyte Count WBC [6],Lymphocyte Count [6],Monocyte Count [6],Neutrophil Count [6],Alveolar Lavage Fluid IgE Concentration [7],Lung Tissue IgE Concentration [7],Peripheral Blood IgE Concentration [7],also measured
CCCCCCCNS(=O)(=O)c1ccc(-c2cc3c(cc2F)c(=O)c(C(=O)O)cn3CC)cc1,100 to 1000 nM,6.5 ± 1.0 ng/mL,14.9 ± 2.0 µg/mL,5.6 ± 1.0 ng/mL,10.5 ± 2.0 µg/mL,0.00±0.00,1.2±1.0,2.0±1.2,3.1±1.0,–,–,–,–,–,–,–,–,"DAI score ([3]; D5, 20mg/kg QD p.o.): 3.7±1.0; DAI score ([3]; D6, 20mg/kg QD p.o.): 4.7±1.4"
O=C(O)c1cn(C2CC2)c2nc(-c3ccc(S(=O)(=O)NCCO)cc3)c(F)cc2c1=O,–,–,–,–,–,–,–,–,–,1.6±0.4*** 10^9/L,1.9±0.5*** 10^9/L,0.1±0.06** 10^9/L,0.08±0.02** 10^9/L,0.1±0.08** 10^9/L,6.3 ± 1.7 ng/mL,32.8 ± 4.1 ng/mL,11.9 ± 2.3 ng/mL,–
COc1c(-c2ccc(C(=O)NCC(C)(C)O)c(N)c2)c(F)cc2c(=O)c(C(=O)O)cn(C3CC3)c12,–,–,–,–,–,–,–,–,–,2.0±0.5** 10^9/L,2.5 ±0.5** 10^9/L,0.2±0.06* 10^9/L,0.1±0.02* 10^9/L,0.2±0.04** 10^9/L,12.1 ± 1.8 ng/mL,37.2 ± 3.5 ng/mL,14.7 ± 4.3 ng/mL,–

# Further lines, with some results ahead:
IC50 [1],SMILES,Histamine Level ([2]; 4mg/kg Topical application),IgE Level ([2]; 4mg/kg Topical application),Histamine Level ([2]; 25mg/kg Oral),IgE Level ([2]; 25mg/kg Oral),"DAI score ([3]; D1, 20mg/kg QD p.o.)","DAI score ([3]; D2, 20mg/kg QD p.o.)","DAI score ([3]; D3, 20mg/kg QD p.o.)","DAI score ([3]; D4, 20mg/kg QD p.o.)",Eosinophil Count [6],Leukocyte Count WBC [6],Lymphocyte Count [6],Monocyte Count [6],Neutrophil Count [6],Alveolar Lavage Fluid IgE Concentration [7],Lung Tissue IgE Concentration [7],Peripheral Blood IgE Concentration [7],also measured
100 to 1000 nM,CCCCCNS(=O)(=O)c1ccc(-c2c(F)cc3c(=O)c(C(=O)O)cn(C4CC4)c3c2OC)cc1,–,–,–,–,–,–,–,–,–,–,–,–,–,–,–,–,PASI score ([4]; D1): 0; PASI score ([4]; D2): 0.5±0.3; PASI score ([4]; D3): 1.6±0.3; PASI score ([4]; D4): 3.0±0.4; PASI score ([4]; D5): 3.7±0.3; PASI score ([4]; D6): 4.6 ·; PASI score ([4]; D7): 5.5 ·; PASI score ([4]; D8): 6.7 ·
100 to 1000 nM,CCCCCCCNS(=O)(=O)c1ccc(-c2cc3c(cc2F)c(=O)c(C(=O)O)cn3C2CC2)cc1,6.4 ± 1.0 ng/mL,14.8 ± 1.0 µg/mL,6.9 ± 1.0 ng/mL,17.3 ± 1.5 µg/mL,0.00±0.00,0.8±1.0,0.9±0.6,2.4±0.8,–,–,–,–,–,–,–,–,Right Ear Thickness of Mice ([5]; D2): 0.19±0.04 mm; Right Ear Thickness of Mice ([5]; D4): 0.28 ± 0.04 mm; Right Ear Thickness of Mice ([5]; D6): 0.35 ± 0.04 mm; Right Ear Thickness of Mice ([5]; D8): 0.48 ± 0.04 mm; Right Ear Thickness of Mice ([5]; D10): 0.52 ± 0.04 mm; Right Ear Thickness of Mice ([5]; D12): 0.54 ± 0.04 mm; Right Ear Thickness of Mice ([5]; D14): 0.59 ± 0.03 mm

# Marks after values point to notes of the source that are not given here.
